The target in this assay is human ACC2 (Homo sapiens (Human), UniProt O00763). Kind of assay: ACC2 assay (spectrophotometric 384 well assay, NADH-linked coupled lactate dehydrogenase/pyruvate kinase).
[1] abbreviates: hACC2 construct lacking 128 N-terminal amino acids, 25° C., 340 nm, 15 minutes.

Amino acid sequences for entries named in this document (tags omitted). Residues count along the entry.
UniProt O00763, 129-2458 limits assumed: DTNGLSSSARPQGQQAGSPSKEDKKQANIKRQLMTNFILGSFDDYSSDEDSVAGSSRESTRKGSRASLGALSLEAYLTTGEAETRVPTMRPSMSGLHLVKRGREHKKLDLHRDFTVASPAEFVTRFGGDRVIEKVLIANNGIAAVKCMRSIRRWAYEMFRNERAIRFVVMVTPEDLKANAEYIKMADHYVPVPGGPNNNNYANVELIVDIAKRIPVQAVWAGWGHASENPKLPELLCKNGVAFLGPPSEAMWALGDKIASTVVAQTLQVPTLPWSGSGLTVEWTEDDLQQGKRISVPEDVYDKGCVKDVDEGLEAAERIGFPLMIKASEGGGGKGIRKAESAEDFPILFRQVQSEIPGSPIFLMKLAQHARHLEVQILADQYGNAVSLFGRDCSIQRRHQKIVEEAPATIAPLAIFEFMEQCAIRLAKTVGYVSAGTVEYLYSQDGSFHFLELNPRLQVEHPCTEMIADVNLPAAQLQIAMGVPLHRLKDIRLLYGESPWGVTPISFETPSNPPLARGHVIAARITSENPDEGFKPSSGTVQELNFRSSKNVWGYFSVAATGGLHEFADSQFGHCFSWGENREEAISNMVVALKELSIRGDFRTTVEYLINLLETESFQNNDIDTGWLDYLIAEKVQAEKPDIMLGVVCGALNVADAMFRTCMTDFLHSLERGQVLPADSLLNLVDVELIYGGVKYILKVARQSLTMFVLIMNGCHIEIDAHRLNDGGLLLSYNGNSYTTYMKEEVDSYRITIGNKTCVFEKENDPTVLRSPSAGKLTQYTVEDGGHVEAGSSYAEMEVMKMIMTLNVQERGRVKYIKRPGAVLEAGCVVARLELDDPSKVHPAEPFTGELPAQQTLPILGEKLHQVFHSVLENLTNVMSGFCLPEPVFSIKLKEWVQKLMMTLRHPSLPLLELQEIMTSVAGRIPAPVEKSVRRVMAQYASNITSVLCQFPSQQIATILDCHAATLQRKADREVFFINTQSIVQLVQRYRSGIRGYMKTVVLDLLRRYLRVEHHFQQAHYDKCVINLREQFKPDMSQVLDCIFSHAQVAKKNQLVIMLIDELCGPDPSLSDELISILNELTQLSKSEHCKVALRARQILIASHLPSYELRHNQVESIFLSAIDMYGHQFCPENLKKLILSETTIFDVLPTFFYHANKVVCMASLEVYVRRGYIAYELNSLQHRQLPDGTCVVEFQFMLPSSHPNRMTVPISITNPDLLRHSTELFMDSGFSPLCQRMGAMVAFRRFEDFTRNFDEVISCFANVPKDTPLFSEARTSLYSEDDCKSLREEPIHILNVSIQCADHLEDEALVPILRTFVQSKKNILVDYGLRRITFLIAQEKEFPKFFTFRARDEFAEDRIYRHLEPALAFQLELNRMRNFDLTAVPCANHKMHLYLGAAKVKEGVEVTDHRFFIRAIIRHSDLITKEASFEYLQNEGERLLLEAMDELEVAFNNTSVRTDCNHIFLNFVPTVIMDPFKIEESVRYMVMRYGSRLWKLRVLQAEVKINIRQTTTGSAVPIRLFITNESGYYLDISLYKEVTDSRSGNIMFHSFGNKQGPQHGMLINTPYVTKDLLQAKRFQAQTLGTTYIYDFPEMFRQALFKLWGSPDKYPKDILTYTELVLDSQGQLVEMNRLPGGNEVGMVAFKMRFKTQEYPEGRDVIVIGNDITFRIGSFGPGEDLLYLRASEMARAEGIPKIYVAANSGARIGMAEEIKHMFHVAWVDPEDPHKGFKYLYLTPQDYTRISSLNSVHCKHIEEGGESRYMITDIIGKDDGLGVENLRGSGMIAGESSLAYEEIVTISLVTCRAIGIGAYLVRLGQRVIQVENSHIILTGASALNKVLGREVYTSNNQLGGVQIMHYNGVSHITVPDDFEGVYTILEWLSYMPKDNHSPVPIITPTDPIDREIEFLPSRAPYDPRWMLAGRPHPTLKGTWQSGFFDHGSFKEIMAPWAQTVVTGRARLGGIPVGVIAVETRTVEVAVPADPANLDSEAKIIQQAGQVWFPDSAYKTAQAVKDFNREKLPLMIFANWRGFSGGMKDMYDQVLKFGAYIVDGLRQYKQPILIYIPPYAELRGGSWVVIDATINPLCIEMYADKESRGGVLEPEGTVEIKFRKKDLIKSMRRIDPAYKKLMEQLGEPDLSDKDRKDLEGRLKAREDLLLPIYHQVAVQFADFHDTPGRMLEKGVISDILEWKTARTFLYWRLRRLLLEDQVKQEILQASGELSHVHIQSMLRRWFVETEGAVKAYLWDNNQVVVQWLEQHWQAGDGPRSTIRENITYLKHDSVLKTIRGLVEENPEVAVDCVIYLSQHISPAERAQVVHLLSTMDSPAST

From patent publication US8530460B2, “Azetidine derivatives” (Boehringer Ingelheim International GmbH, priority 2011, dated 2013) come the findings set out here.

Read-outs that look alike come from different tables or passages of the source.

The IC50 is the concentration at which inhibition is half-maximal. A low value points to higher potency. Consider `CC(=O)N[C@@H](C)c1ccc(OC2CN(c3ccc(Cl)cn3)C2)cc1`, for which the IC50 under setting [1] was 460 nM.

`CCOc1ccc(N2CC(Oc3ccc([C@H](C)NC(=O)c4ccncc4)cc3)C2)cc1` registered a concentration for half-maximal inhibition (IC50) under setting [1] of 1260 nM. Regarding `CCOc1ccc(N2CC(Oc3ccc([C@H](C)NC(C)=O)cc3)C2)cc1OCC`, the IC50 was 2550 nM.
